According to patent publication US9687569B2, “Theranostic nanoparticle and methods for making and using the nanoparticle” (priority 2012, dated 2017):

System: C6-ADR cells
Assay: Dose-response, Alamar Blue cell viability assay
Details: DOX dose

**Q.** Which results are given for COc1cccc2c1C(=O)c1c(O)c3c(c(O)c1C2=O)C[C@@](O)(C(=O)CO)C[C@@H]3O[C@H]1C[C@H](N)[C@H](O)[C@H](C)O1.Cl [free DOX, Doxorubicin.HCl]?
**A.** IC50 (24 h after treatment): 0.748 ± 0.146 µg/mL; IC50 (72 h after treatment): 1.102 ± 0.105 µg/mL
